Source: patent US8822500B2 (dated 2014)
Where two headings read alike, the source gives them in different places.

Protein sequences, listed by entry. Tags and fused reporters are not part of them. Residues count along the entry.
UniProt P04629, 33-796: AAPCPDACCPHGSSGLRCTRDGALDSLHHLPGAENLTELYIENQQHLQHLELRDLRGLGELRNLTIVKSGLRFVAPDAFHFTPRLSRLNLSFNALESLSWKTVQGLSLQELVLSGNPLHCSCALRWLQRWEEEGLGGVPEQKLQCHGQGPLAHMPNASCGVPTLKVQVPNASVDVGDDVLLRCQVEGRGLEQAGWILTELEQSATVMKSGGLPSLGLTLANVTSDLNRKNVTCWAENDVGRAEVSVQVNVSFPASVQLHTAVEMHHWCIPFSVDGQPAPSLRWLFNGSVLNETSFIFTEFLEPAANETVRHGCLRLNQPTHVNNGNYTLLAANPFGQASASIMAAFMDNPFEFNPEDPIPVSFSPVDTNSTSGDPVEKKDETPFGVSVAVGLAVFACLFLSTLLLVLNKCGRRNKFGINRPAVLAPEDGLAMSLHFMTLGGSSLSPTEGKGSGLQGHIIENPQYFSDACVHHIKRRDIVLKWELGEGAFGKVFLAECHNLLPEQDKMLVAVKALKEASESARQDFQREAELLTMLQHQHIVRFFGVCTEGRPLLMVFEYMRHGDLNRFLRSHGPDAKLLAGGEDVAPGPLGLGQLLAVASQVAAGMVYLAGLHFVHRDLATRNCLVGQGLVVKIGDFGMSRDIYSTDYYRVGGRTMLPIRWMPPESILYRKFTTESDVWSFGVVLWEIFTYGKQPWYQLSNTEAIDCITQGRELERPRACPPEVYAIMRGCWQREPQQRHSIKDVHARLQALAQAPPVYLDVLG

Molecular target: TrkA (Homo sapiens (Human), UniProt P04629)
Test: In vitro kinase activity assay (LANCE TR-FRET);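 note: kinase reaction with poly-GT peptide substrate and ATP, phosphorylated product quantified by time-resolved FRET, eleven-point dose curves from 10^−11 to 10^−5 M in triplicate, DMSO as negative control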
Type: biochemical

**Q.** Which IC50 (read-out: TrKA IC50) does the source give for “(S)-6-(6-Fluoropyridin-3-yl)-2-(2-oxo-4-((1-(2,3,5,6-tetrafluorophenyl)propan-2-yl)amino)-1,2-dihydropyridin-3-yl)imidazo[4,5-f]isoindole-5,7(1H,6H)-dione [Compound 15]” here?
**A.** > 10000 nM

**Q.** And the IC50 (read-out: TrkA (nM) IC50)?
**A.** > 10000 nM
